# Values quoted from earlier work, collected in US20210223230A1, “Neamine Compositions and Methods of Use Thereof” (President and Fellows of Harvard College, priority 2008, published 2021).
# Conditions: cited from earlier work
substance,measurement,value
neomycin,acute LD50 (subcutaneous) in mice,220 mg/kg
